This experiment deals with Cholinesterase (Homo sapiens, UniProt P06276). In words: Inhibitory concentration against human serum butyrylcholinesterase activity.

Sequences of proteins named here, by UniProt entry; tags and fusion partners are left off.
UniProt P06276, whole entry: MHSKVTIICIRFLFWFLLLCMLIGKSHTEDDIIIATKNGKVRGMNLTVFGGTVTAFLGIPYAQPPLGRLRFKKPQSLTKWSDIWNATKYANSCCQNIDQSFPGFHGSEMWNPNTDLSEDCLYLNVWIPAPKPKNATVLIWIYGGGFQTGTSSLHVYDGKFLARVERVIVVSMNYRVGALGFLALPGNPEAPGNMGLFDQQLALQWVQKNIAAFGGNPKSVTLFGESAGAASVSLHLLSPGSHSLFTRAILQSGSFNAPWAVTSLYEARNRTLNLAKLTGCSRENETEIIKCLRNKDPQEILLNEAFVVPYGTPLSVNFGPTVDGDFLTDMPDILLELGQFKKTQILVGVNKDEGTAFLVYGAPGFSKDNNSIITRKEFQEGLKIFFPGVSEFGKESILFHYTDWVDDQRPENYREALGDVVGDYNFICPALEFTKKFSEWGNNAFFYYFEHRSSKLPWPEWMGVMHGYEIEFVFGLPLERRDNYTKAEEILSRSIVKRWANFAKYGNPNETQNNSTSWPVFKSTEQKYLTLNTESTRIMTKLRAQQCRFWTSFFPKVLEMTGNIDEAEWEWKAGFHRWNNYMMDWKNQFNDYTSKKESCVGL

Structures are written as SMILES.

One may read the IC50 as the concentration that gives 50% inhibition.

`CCN(C)C(=O)Oc1cccc([C@H](C)N(C)C)c1` [RIVASTIGMINE] had an IC50 of 301 nM.

The record behind these values is ChEMBL document CHEMBL1137822 (J Med Chem, 2004).
